Biological target: PIM-2 (Homo sapiens, UniProt Q9P1W9)
Assay: PIM-2 kinase ADP Hunter Plus assay
Assay type: biochemical
Details: 100 µM ATP
Description: Kinase activity was measured with the commercial ADP Hunter™ Plus assay (DiscoveRx Ref. #33-016), a homogeneous assay measuring ADP accumulation, as a universal product of kinase activity. The assay was conducted following the manufacturer’s recommendations and adapting the protein and substrate concentrations for optimal conditions. The kinase assay buffer was 15 mM HEPES, pH 7.4, 20 mM NaCl, 1 mM EGTA, 0.02% Tween-20, 10 mM MgCl2 and 0.1 mg/ml BGG (bovine γ-globulin). All PIM kinase assays were performed with 100 µM PIMtide ([…]) as the peptide substrate and 100 µM ATP. The protein concentrations were 50, 350 and 500 ng/µl for PIM-1, 2 and 3, respectively. To calculate the IC50 of the ETP-compounds, serial 1∶5 dilutions were prepared and the reaction was started with the addition of ATP. The reaction was incubated for 1 h at 25°C. Reagents A and B (DiscoveRx) were sequentially added to the wells, and the plates were incubated for 30 min at 37°C. Fluorescence counts were read in a Victor instrument (Perkin Elmer) with the recommended settings (544 and 580 nm as the excitation and emission wavelengths, respectively). Values were plotted against the inhibitor concentrations and fit to a sigmoid dose–response curve using GraphPad software.

Sequences of proteins named here, by UniProt entry; tags and fusion partners are left off. A change or cut given only in a name is not applied to a line headed by its entry.
UniProt Q9P1W9: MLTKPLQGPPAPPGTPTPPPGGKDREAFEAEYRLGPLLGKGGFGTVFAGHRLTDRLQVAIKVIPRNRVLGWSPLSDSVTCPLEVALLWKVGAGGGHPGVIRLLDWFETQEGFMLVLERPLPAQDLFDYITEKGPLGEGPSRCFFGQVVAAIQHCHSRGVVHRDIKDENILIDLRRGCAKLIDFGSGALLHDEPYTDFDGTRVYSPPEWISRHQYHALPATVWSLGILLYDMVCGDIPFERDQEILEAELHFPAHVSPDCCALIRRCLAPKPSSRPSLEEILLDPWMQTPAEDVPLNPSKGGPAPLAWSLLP

`CN1CCC(CNc2ccc3ncc(-c4cccc(OC(F)(F)F)c4)n3n2)CC1` [Compound 3, reference compound] was tested, and the IC50 was 1 µM.

From article PMC3480357, “Fragment-Hopping-Based Discovery of a Novel Chemical Series of Proto-Oncogene PIM-1 Kinase Inhibitors” (PLoS ONE, 2012)
